# Data taken from PubChem BioAssay AID720553 (National Center for Advancing Translational Sciences (NCATS), 2013).
# The entries are a selection whose mix differs from that of the whole data set. Calls of active or inactive are those of the source.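 The calls were made as follows: active = maximum activity change below -70%; inconclusive = maximum activity change from -70% to -50%; inactive = maximum activity change above -50%.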
# Tested on: Potassium voltage-gated channel subfamily H member 2, brain isoform KCNH2 3.1 (human)
# Assay: qHTS for Inhibitors of KCHN2 3.1: Mutant qHTS
# Conditions: U2OS KCNH2 3.1, thallium flux FluxOr; stronger effect = lower value
# Excerpt: Many antipsychotic drugs that inhibit the neurotransmitter dopamine also bind to hERG1 channel which might help explain their antipsychotic activity but also produces cardiac side effects. The discovery of the novel KCNH2 3.1 isoform offers a potential new target for the development of antipsychotic drugs without cardiac side effects. This proposal will use a high throughput thallium flux assay developed for KCNH2 to screen compounds that modulate the activity of KCNH2 3.1. The wild type KCNH2 channel will also be screened in parallel to help define the selective modulators of this KCNH2 3.1 potassium channel. The resulting compounds will be validated in electrophysiology experiments. The availability of animal models will allow future testing in vivo for effects on memory and other aspects of animal physiology linked with psychosis. NIH Chemical Genomics Center [NCGC] NIH Molecular Libraries Probe Centers Network [MLPCN] MLPCN Grant: MH096539 Assay Submitter (PI): James Barrow, Johns Hopkins University, Lieber Institute for Brain Development
# U2OS cells were resuspended in cell media containing 10% fetal calf serum (FCS) at a concentration of 2 million cells / mL. The solution was treated with the mutant (3.1) virus at 1.77 x 10^8 / mL and allowed to incubate at room temperature in the dark. After 4 hours of incubation, DMEM + 10% fetal bovine serum (FBS) was added to the cell solution. Three microliter was then dispensed into a 1536 tissue culture treated black assay plates which were incubated overnight at 37 C. Two microliter of loading buffer (HBSS + HEPES + Red40 dye quencher + FluxOr dye) was added and the assay plates were incubated for 45 min at room temperature in the dark. […] A stimulation buffer was added to the plate and the second kinetic read (2 min) was obtained. The rate constant was calculated from the kinetic reads and normalized to the positive and negative DMSO controls.
# % is scaled to controls: 0 for no effect and ±100 for the full control effect.
row,SMILES,activity change
1,O=C(OCCN1CCN(CCOCc2ccccc2)CC1)C(O)(c1ccccc1)c1ccccc1,inactive: 9.05%
2,CP(=O)(Nc1ccccc1F)Oc1ccccc1 (configuration not stated),inactive: 4.99%
3,CC(C)c1ccc(OP(C)(=O)Nc2ccc(SC(F)(F)F)cc2)cc1 (configuration not stated),inactive: -8.26%
4,Cc1c([N+](=O)[O-])cc([N+](=O)[O-])c(Br)c1[N+](=O)[O-],inactive: -4.18%
5,CCN(CC)CCCOC(=O)C(O)(c1ccccc1)C1CCCCC1 (configuration not stated),inactive: -0.586%
6,CP(=O)(Nc1ccccc1)Oc1ccc(F)cc1 (configuration not stated),inactive: 8.4%
7,CCCCCOc1ccc(NP(C)(=O)Oc2ccc(Cl)cc2Cl)cc1 (configuration not stated),inactive: 2.44%
8,CCOC(=O)c1ccc(NP(C)(=O)Oc2ccc(F)cc2)cc1 (configuration not stated),inactive: 13.5%
9,COc1ccc(OP(C)(=O)Nc2ccc(SC(F)(F)F)cc2)cc1 (configuration not stated),inactive: 7.27%
10,O=[N+]([O-])c1ccc(OP2(=O)COCCO2)cc1 (configuration not stated),inactive: 3.89%
11,Cc1cc(-c2cccc3ccccc23)c(C)cn1.O=[N+]([O-])c1cc([N+](=O)[O-])c(O)c([N+](=O)[O-])c1,inactive: 4.6%
12,Cc1c(C(c2ccc3c(c2)OCO3)c2c(C)n(C)n(-c3ccccc3)c2=O)c(=O)n(-c2ccccc2)n1C.O=[N+]([O-])c1cc([N+](=O)[O-])c(O)c([N+](=O)[O-])c1,inactive: -17.6%
13,COc1ccc(OP(C)(=O)Nc2cccc(Br)c2)cc1 (configuration not stated),inactive: 9.68%
14,CN(C)CCOC(=O)C(O)(c1ccccc1)C1CCCCC1 (configuration not stated),inactive: 0.0391%
15,COc1ccc(NP(C)(=O)Oc2ccccc2OC)cc1 (configuration not stated),inactive: 5.33%
16,CP(=O)(Nc1ccc2c(c1)OCCO2)Oc1ccccc1 (configuration not stated),inactive: -2.06%
17,Cc1ccccc1NP(C)(=O)Nc1ccccc1C,inactive: 2.12%
18,CP(=O)(Nc1ccc(SC(F)(F)F)cc1)Oc1ccc(F)cc1 (configuration not stated),inactive: 3.11%
19,CCOP(C)(=S)SCC(=O)NC(C)(CC)C(=O)O (configuration not stated),inactive: -7.18%
20,CC(C)(C)c1ccc(OP(C)(=O)O)cc1,inactive: 4.27%
21,COc1ccccc1OP(C)(=O)Nc1ccccc1Br (configuration not stated),inactive: -3.62%

row,SMILES,activity change
1,CP(=O)(Nc1ccc(Cl)cc1)Oc1ccc(F)cc1 (configuration not stated),inactive: -10.8%
2,CN(C)C(=O)c1c([N+](=O)[O-])cc([N+](=O)[O-])cc1[N+](=O)[O-],inactive: -8.1%
3,COc1ccc(OP(C)(=O)Nc2ccc(Br)cc2)cc1 (configuration not stated),inactive: 12.3%
4,CCN(CC)CC(O)COC(=O)C(O)(c1ccccc1)C1CCCCC1 (configuration not stated),inactive: 5.3%
5,O=C(OCCCN1CCCC1)C(O)(c1ccccc1)C1CCCCC1 (configuration not stated),inactive: 14.3%
6,COc1ccccc1OP(C)(=O)Nc1c(C)n(C)n(-c2ccccc2)c1=O (configuration not stated),inactive: -5.06%
7,CCc1ccc(OP(C)(=O)Nc2cccnc2)cc1 (configuration not stated),inactive: 11.6%
8,CP(=O)(Oc1ccccc1)N1CCOC1=O (configuration not stated),inactive: 1.28%
9,Nc1ccc2c(ccc3cccnc32)n1.O=[N+]([O-])c1cc([N+](=O)[O-])c(O)c([N+](=O)[O-])c1,inactive: 21.2%
10,CCOC(=O)c1ccc(NP(C)(=O)Oc2ccc(Cl)cc2)cc1 (configuration not stated),inactive: -14.6%
11,CP(=O)(OC12CC3CC(CC(C3)C1)C2)OC12CC3CC(CC(C3)C1)C2,inactive: -21.1%
12,CP(=O)(OCCOc1ccccc1)OCCOc1ccccc1,inactive: -3.6%
13,CCCCCCCCCCCCCCCC1C[N+](C)(C)CCOP(C)(=O)O1 (configuration not stated),inactive: 5.65%
14,CP(=O)(Nc1ccc(Cl)cc1Cl)Oc1ccccc1 (configuration not stated),inactive: 11.6%
15,Cc1cc(C)cc(OP(C)(=O)Nc2cccc(C(F)(F)F)c2)c1 (configuration not stated),inactive: -21.7%
16,COc1ccccc1OP(C)(=O)Nc1ccc(C)c(C)c1 (configuration not stated),inactive: 1.62%
17,COc1ccc(OP(C)(=O)Nc2ccccc2Br)cc1 (configuration not stated),inactive: 8.73%
18,O=[N+]([O-])c1cc([N+](=O)[O-])c(Nc2ccccn2)c([N+](=O)[O-])c1,inactive: -0.16%
19,Cc1c(NP(C)(=O)Oc2ccc(C(C)C)cc2)c(=O)n(-c2ccccc2)n1C (configuration not stated),inactive: 4.46%
20,COc1ccccc1OP(C)(=O)Nc1ccc(C)cc1C (configuration not stated),inactive: -12.1%
21,CP(=O)(Nc1ccccn1)Oc1ccccc1 (configuration not stated),inactive: -9.35%

row,SMILES,activity change
1,CCc1ccc(OP(C)(=O)O)cc1,inactive: -5.89%
2,COc1ccccc1OP(C)(=O)Nc1ccc(Br)cc1 (configuration not stated),inactive: 7.33%
3,COc1ccc(OP(C)(=O)Nc2ccccn2)cc1 (configuration not stated),inactive: -5.7%
4,CN(C)CCOC(=O)C(O)(c1ccccc1)C1CCCC1 (configuration not stated),inactive: 2.54%
5,CCN(CC)CCCOC(=O)C(O)(c1ccccc1)c1ccccc1,inactive: -8.4%
6,Cc1ccc(NP(C)(=O)Oc2ccccc2)c(C)c1 (configuration not stated),inactive: -1.15%
7,COc1ccccc1OP(C)(=O)Nc1ccc(C)cc1 (configuration not stated),inactive: -5.27%
8,CCOC(=O)c1ccc(NP(C)(=O)Oc2ccccc2)cc1 (configuration not stated),inactive: -0.384%
9,Cc1cc(C)cc(OP(C)(N)=O)c1 (configuration not stated),inactive: 7.73%
10,COc1ccc(OP(C)(=O)Nc2cccc(F)c2)cc1 (configuration not stated),inactive: 7.43%
11,COc1ccccc1OP(C)(=O)Nc1cc(Cl)ccc1C (configuration not stated),inactive: -36.8%
12,O=[N+]([O-])c1cc([N+](=O)[O-])c(Nc2cccnc2)c([N+](=O)[O-])c1,inactive: 24.4%
13,Cc1cccc(C)c1OP(C)(N)=O (configuration not stated),inactive: 2.19%
14,CC(C)(C)c1ccc(OP(C)(=O)Nc2ccc(SC(F)(F)F)cc2)cc1 (configuration not stated),inactive: -6.64%
15,CP(=S)(Nn1cnnc1)Oc1ccccc1 (configuration not stated),inactive: 1.44%
16,CP(=O)(Nc1ccccc1Br)Oc1ccccc1 (configuration not stated),inactive: 2.74%
17,COc1ccccc1OP(C)(=O)Nc1ccccc1 (configuration not stated),inactive: -6.46%
18,CCOC(=O)c1ccc(NP(C)(=O)Oc2ccc(OC)cc2)cc1 (configuration not stated),inactive: 23.3%
19,O=[N+]([O-])c1cc([N+](=O)[O-])c(O)c([N+](=O)[O-])c1.c1ccc(Oc2ccncc2)cc1,inactive: 3.18%
20,CCOP(C)(=S)SCC(=O)NC(C)C(=O)O (configuration not stated),inactive: 23.6%
